This is an account of results in patent US20260382608A1, “A CLASS OF PYRIMIDINE COMPOUNDS, AND PREPARATION METHOD THEREFOR AND USE THEREOF” (published 2026).

SMILES strings stand for the structures.

The experiment has as its system PC-9-EGFR-Del19-T790M-C797S cells. As to the kind of experiment: Proliferation inhibition on PC-9-EGFR-Del19-T790M-C797S cells by sulforhodamine B method (SRB method). Particulars: read-out: PC-9-EGFR-Del19-T790M-C797S IC50, 72 hours, 37 °C, 5% CO2, 0.5% DMSO, 5000 cells/well, EGFR Del19/T790M/C797S exogenously stably overexpressed. As to the method: The in vitro proliferation inhibition activity of the compound on PC-9-EGFR-Del19-T790M-C797S cells where Del19/T790M/C797S triple mutation exists in exogenously stably overexpressed EGFR protein of human non-small cell lung cancer PC-9 was determined by sulforhodamine B method (SRB method).
Cell source: PC-9-EGFR-Del19-T790M-C797S cells were purchased from Nanjing Cobioer Biosciences Co., Ltd.
PC-9-EGFR-Del19-T790M-C797S cells were cultured in an RPMI1640 complete medium containing puromycin (2 g/ml) and 10% fetal bovine serum. PC-9-EGFR-Del19-T790M-C797S cells in a logarithmic growth phase were taken, seeded in a 96-well plate at a cell density of 5000 cells/135 μL complete culture medium/well, placed in a thermostatic incubator containing 5% CO2 at 37 °C and cultured for 24 hours to ensure complete anchorage of cells. Each compound was dissolved in dimethyl sulfoxide (DMSO) in advance to prepare a 10 mM stock solution, and then the compound was successively diluted with DMSO and the complete culture medium. The 96-well plates in which the cells were seeded were taken out, and one of the plates was used as a growth-free control group (a medium control group without cell growth at 0 hour); 15 μL of compounds with different concentrations were added to each well of other 96-well plates to achieve the final concentrations of 2500, 625, 156.25, 39.06, 9.77, 2.44, 0.61, 0.15, 0.04, and 0.01 nM, and three duplicate wells were set for each compound concentration, a negative control group (a medium control group which contained cells but had no compound added) was provided, and the concentration of DMSO in each well was 0.5%.
The culture of the reserved growth-free control group was terminated immediately, and other 96-well plates were continued to be cultured for 72 hours in the thermostatic incubator containing 5% CO2 at 37 °C before culture termination. The method for culture termination was as follows: each well was added with 50 μL of pre-cooled (4 °C) 50% trichloroacetic acid aqueous solution, placed and fixed for 1 hour at 4 °C, washed with purified water for at least 5 times, and dried naturally in the air or dried in an oven at 60 °C.
A 4 mg/mL SRB solution was prepared by purified water containing 1% glacial acetic acid; 100 μL was added in each well, stained for 1 hour at room temperature, with the supernatant discarded, washed for at least 5 times with 1% glacial acetic acid to remove non-specific binding, and dried for future use. […]
GraphPad Prism 8.3 software was used for data analysis, and non-linear S-curve regression was used for fitting the data to obtain a dose-effect curve, from which an IC50 value was calculated, and the results are shown in Table 1.

Regarding `C=CC(=O)Nc1cc(Nc2nc(-c3cn(C)c4ccccc34)cc[n+]2CCC(=O)Nc2cc(Nc3nccc(-c4cn(C)c5ccccc45)n3)c(OCC(F)(F)F)nc2N(C)CCN(C)C)c(OCC(F)(F)F)nc1N(C)CCN(C)C`, the IC50 was 214 nM. Regarding `C=CC(=O)Nc1cc(Nc2nccc(-c3cn(C)c4ccccc34)n2)c(OCC(F)(F)F)nc1N(C)CCNC`, the IC50 is 173 nM.

In the case of `C=CC(=O)Nc1cc(Nc2nccc(-c3cn(C)c4ccccc34)n2)c(OCC(F)(F)F)nc1N(C)CC[N+](C)(C)CCC(=O)Nc1cc(Nc2nccc(-c3cn(C)c4ccccc34)n2)c(OCC(F)(F)F)nc1N(C)CCN(C)C`, the IC50 was found to be 147 nM. Take `CC(=O)Nc1cc(Nc2nccc(-c3cn(C)c4ccccc34)n2)c(OCC(F)(F)F)nc1N(C)CCN(C)C`: the IC50 came out at 2930 nM.
